Experiments:
Experiment in all cases: Octet, biotinylated pMHC on SA sensors, soluble TCR
[1] = target: HLA-A*02:16/… (human)
[2] = target: HLA-A*02:12/… (human)
[3] = target: HLA-A*02:09/… (human)
[4] = target: HLA-A*02:03/… (human)

| Kd [2] [µM] | Kd [3] [µM] | Substance | other results |
| --- | --- | --- | --- |
|  | 5 | NY^c9 A1B0 (TCR) |  |
|  | 3 | NY^c9 A2B0 (TCR) |  |
| 3 |  | NY^c9 A3B0 (TCR) |  |

More lines, now with the values behind:

| Substance | Kd [2] [µM] | Kd [3] [µM] | other results |
| --- | --- | --- | --- |
| NY^c9 A0B1 (TCR) |  |  | Kd [1]: 5 µM |
| NY^c9 A0B2 (TCR) | 10 | 1.7 |  |
| NY^c9 A5B0 (TCR) |  | 3 | Kd [4]: 9 µM |
